# Target: HoBGLA (Halothermothrix orenii, UniProt B8CYA8)
# By UniProt entry, the sequences of proteins in these tests, tags left out.
# UniProt B8CYA8, entry or part of it: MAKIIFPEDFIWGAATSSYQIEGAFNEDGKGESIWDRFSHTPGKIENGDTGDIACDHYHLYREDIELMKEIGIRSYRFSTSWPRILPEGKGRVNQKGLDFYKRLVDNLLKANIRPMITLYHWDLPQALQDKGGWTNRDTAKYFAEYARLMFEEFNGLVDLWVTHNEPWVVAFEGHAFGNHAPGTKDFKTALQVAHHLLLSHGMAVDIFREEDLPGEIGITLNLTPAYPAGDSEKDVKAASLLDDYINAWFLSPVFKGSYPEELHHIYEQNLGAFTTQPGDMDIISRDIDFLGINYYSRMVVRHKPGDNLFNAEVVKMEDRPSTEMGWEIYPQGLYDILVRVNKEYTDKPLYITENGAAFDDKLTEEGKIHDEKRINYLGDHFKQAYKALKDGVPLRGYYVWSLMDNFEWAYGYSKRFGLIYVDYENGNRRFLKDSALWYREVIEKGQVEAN
# Parameters: gene Hore_15280
smiles,measurement,value
OC[C@H]1OC(O)[C@H](F)[C@@H](O)[C@@H]1O (stereo partly drawn) [2-deoxy-2-fluoro-D-glucose],"X-ray crystal structure, 2.0 Å, soaked",the catalytic nucleophile appears to be labeled by 2FGlc

# Reference: PMC4322223, “Biochemical and structural characterization of a thermostable β-glucosidase from Halothermothrix orenii for galacto-oligosaccharide synthesis” (Applied Microbiology and Biotechnology, 2014)
